Literature values, collected in patent publication US9695481B2, “Polynucleotides comprising a reporter sequence operatively linked to a regulatory element” (UNIVERSITEIT LEIDEN, priority 2010, dated 2017).

Assays:
[1] = test system: mouse ES cell lines containing a DsRed fluorescent reporter; details: cited from earlier work
Salmonella = details: cited from earlier work
[2] = cited from earlier work

Mitomycin C
mES DsRed reporters [1]: Pos.

[H]/N=C(/N)N/C(=N/[H])NCCc1ccccc1 [Phenformin HCl]
Ames test (Salmonella): Neg.

Cc1noc(NS(=O)(=O)c2ccc(N)cc2)c1C [Sulfisoxazole]
In vivo genotoxicity [2]: Neg.

Structures can show the parent of a compound that is named as a salt.
